Reference: US6384186B2 (priority 1995, dated 2002)

Assay: Solubility in organic solvents (physico-chemical data, Table 3)

CCC(C)C1NC(=O)C(C(C)C)N(C)C(=O)C(Cc2c[nH]c3ccccc23)NC(=O)CN(C)C(=O)C(C(C)CC)N(C)C(=O)C(C(C)C)NC(=O)CN(C)C(=O)C(C(C)CC)N(C)C(=O)C(C(C)C)N(C)C(=O)CN(C)C(=O)C(C(C)C)N(C)C(=O)C(C(C)C)N(C)C1=O (stereo not drawn) [omphalotin]
Solubility (in cyclohexane and t-butyl methyl ether): hardly soluble in cyclohexane and t-butyl methyl
Solubility (in ethyl acetate): propanol, less readily soluble in ethyl acetate and
Solubility (in methanol, acetone and 2-propanol): readily soluble in methanol, acetone and 2-
